Earlier results in US20240315956A1, “METHOD OF PRODUCTION OF THE COMPOSITION OF CYCLOOXYGENASE-2 (COX-2) INHIBITORS” (US NANO FOOD & DRUG INC, priority 2021, published 2024).

log P: 3.0
Structure (SMILES): Cc1ccc(-c2cc(C(F)(F)F)nn2-c2ccc(S(N)(=O)=O)cc2)cc1 [Celecoxib]
